Test results from ChEMBL document CHEMBL1140914, “Synthesis and in vitro and in vivo evaluation of 18F-labeled positron emission tomography (PET) ligands for imaging the vesicular acetylcholine transporter” (J Med Chem, 2009).

Columns and labels:
[1] = Ratio of drug uptake in striatum to blood in Sprague-Dawley rat at 25 to 35 uCi, iv after 5 mins postinjection by autoradiography; format: ADME, organism-based; conditions: in vivo
[2] = Ratio of drug uptake in striatum to blood in Sprague-Dawley rat at 25 to 35 uCi, iv after 30 mins postinjection by autoradiography; format: ADME, organism-based; conditions: in vivo, 0.5 h
[3] = Ratio of drug uptake in striatum to blood in Sprague-Dawley rat at 25 to 35 uCi, iv after 1 hr postinjection by autoradiography; format: ADME, organism-based; conditions: in vivo
[4] = Ratio of drug uptake in striatum to blood in Sprague-Dawley rat at 25 to 35 uCi, iv after 2 hrs postinjection by autoradiography; format: ADME, organism-based; conditions: in vivo
[5] = Ratio of drug uptake in striatum to cortex in Sprague-Dawley rat at 25 to 35 uCi, iv after 5 mins postinjection by autoradiography; format: ADME, organism-based; conditions: in vivo
[6] = Ratio of drug uptake in striatum to cortex in Sprague-Dawley rat at 25 to 35 uCi, iv after 30 mins postinjection by autoradiography; format: ADME, organism-based; conditions: in vivo, 0.5 h
[7] = Ratio of drug uptake in striatum to hippocampus in Sprague-Dawley rat at 25 to 35 uCi, iv after 30 mins postinjection by autoradiography; format: ADME, organism-based; conditions: in vivo, 0.5 h
[8] = Ratio of drug uptake in striatum to hippocampus in Sprague-Dawley rat at 25 to 35 uCi, iv after 1 hr postinjection by autoradiography; format: ADME, organism-based; conditions: in vivo
[9] = Ratio of drug uptake in striatum to hippocampus in Sprague-Dawley rat at 25 to 35 uCi, iv after 2 hrs postinjection by autoradiography; format: ADME, organism-based; conditions: in vivo
[10] = Ratio of drug uptake in striatum to cerebellum in Sprague-Dawley rat at 25 to 35 uCi, iv after 5 mins postinjection by autoradiography; format: ADME, organism-based; conditions: in vivo
[11] = Ratio of drug uptake in striatum to cerebellum in Sprague-Dawley rat at 25 to 35 uCi, iv after 30 mins postinjection by autoradiography; format: ADME, organism-based; conditions: in vivo, 0.5 h
[12] = Ratio of drug uptake in striatum to cerebellum in Sprague-Dawley rat at 25 to 35 uCi, iv after 1 hr postinjection by autoradiography; format: ADME, organism-based; conditions: in vivo
[13] = Ratio of drug uptake in striatum to cerebellum in Sprague-Dawley rat at 25 to 35 uCi, iv after 2 hrs postinjection by autoradiography; format: ADME, organism-based; conditions: in vivo
[14] = Ratio of drug uptake in striatum to total brain in Sprague-Dawley rat at 25 to 35 uCi, iv after 5 mins postinjection by autoradiography; format: ADME, organism-based; conditions: in vivo
[15] = Ratio of drug uptake in striatum to total brain in Sprague-Dawley rat at 25 to 35 uCi, iv after 30 mins postinjection by autoradiography; format: ADME, organism-based; conditions: in vivo, 0.5 h
[16] = Ratio of drug uptake in striatum to total brain in Sprague-Dawley rat at 25 to 35 uCi, iv after 1 hr postinjection by autoradiography; format: ADME, organism-based; conditions: in vivo
[17] = Ratio of drug uptake in striatum to total brain in Sprague-Dawley rat at 25 to 35 uCi, iv after 2 hrs postinjection by autoradiography; format: ADME, organism-based; conditions: in vivo
[18] = Ratio of drug uptake in striatum to cerebellum in iv dosed rhesus monkey after 2 hrs postinjection by microPET imaging analysis; format: ADME, organism-based, Macaca mulatta; conditions: in vivo
[19] = Ratio of drug uptake in striatum to cortex in Sprague-Dawley rat at 25 to 35 uCi, iv after 1 hr postinjection by autoradiography; format: ADME, organism-based; conditions: in vivo
[20] = Ratio of drug uptake in striatum to cortex in Sprague-Dawley rat at 25 to 35 uCi, iv after 2 hrs postinjection by autoradiography; format: ADME, organism-based; conditions: in vivo
[21] = Ratio of drug uptake in striatum to hippocampus in Sprague-Dawley rat at 25 to 35 uCi, iv after 5 mins postinjection by autoradiography; format: ADME, organism-based; conditions: in vivo

## O=C(c1ccc([18F])cc1)C1CCN([C@@H]2Cc3ccccc3C[C@H]2O)CC1 (stereo in doubt; (-))
[1]
  Ratio: 12.55
[2]
  Ratio: 8.86
[3]
  Ratio: 5.97
[4]
  Ratio: 5.17
[5]
  Ratio: 1
[6]
  Ratio: 1.39
[7]
  Ratio: 1.36
[8]
  Ratio: 1.35
[9]
  Ratio: 1.11
[10]
  Ratio: 1.23
[11]
  Ratio: 1.85
[12]
  Ratio: 1.64
[13]
  Ratio: 1.32
[14]
  Ratio: 1.11
[15]
  Ratio: 1.44
[16]
  Ratio: 1.38
[17]
  Ratio: 1.08
[18]
  Ratio: 2.1
[19]
  Ratio: 1.36
[20]
  Ratio: 1.09
[21]
  Ratio: 1.09

## O=C(c1ccc([18F])cc1)C1CCN([C@@H]2Cc3ccccc3C[C@H]2O)CC1 (stereo in doubt; (+))
[1]
  Ratio: 2.67
[2]
  Ratio: 0.95
[3]
  Ratio: 0.9
[4]
  Ratio: 0.87
[5]
  Ratio: 0.92
[6]
  Ratio: 1.08
[7]
  Ratio: 0.93
[8]
  Ratio: 0.98
[9]
  Ratio: 0.99
[10]
  Ratio: 1.15
[11]
  Ratio: 1.3
[12]
  Ratio: 1.17
[13]
  Ratio: 1.14
[14]
  Ratio: 1.02
[15]
  Ratio: 1.13
[16]
  Ratio: 1.02
[17]
  Ratio: 1.04
[19]
  Ratio: 0.95
[20]
  Ratio: 0.91
[21]
  Ratio: 0.99
